Measured values: patent US6964857B2, “Measuring indigenous photosynthetic organisms to detect chemical warefare agents in water” (dated 2005)

Tested on: naturally occurring algae in the river water
Assay: Fluorescence induction curves of naturally occurring algae in Clinch River water (Walz XE-PAM fluorometer)
[1] = Clinch River water, final concentration 10 μM, 6-minute exposure (FIG. 3)

## COP(=S)(OC)Oc1ccc([N+](=O)[O-])cc1
Clinch River water as is, final concentration 18 μg/mL, 10-second actinic light pulse, vs control curve (FIG. 1)
  change in the initial fluorescence (Fo) and maximum fluorescence (Fmax): clear change

## CN(C)C(=O)Nc1ccc(Cl)c(Cl)c1
[1]
  fluorescence of water sample: increased considerably
  kinetic time course of fluorescence induction curve: dramatic change
